Columns and labels:
[1] = test system: CAD murine neuroblastoma cells; experiment: αSyn intracytoplasmic inclusions in CAD cells, confocal quantification; format: cell-based, mouse; conditions: overexpression with Flag-αSyn, vs vector
Protocol: (A-L) CAD murine neuroblastoma cells were transfected with WT DJ-1 (A-F), L166P DJ-1 (G-I) or vector control (J-L), along with Flag-αSyn (D-L) or vector control (A-C) and differentiated in vitro by serum withdrawal for 72 h. Cells were fixed and stained with a mouse monoclonal antibody for αSyn and ToPro3, a nuclear dye, and images were obtained by confocal microscopy. Transfection of Flag-αSyn induced formation of intracytoplasmic inclusions (arrows). Scale bar, 20 μm. (M) Quantification of cells with inclusions was performed on ten random images from each of three wells per condition. Images were quantified by an observer blinded to the experiment. […] Aggregation is expressed as the percentage of cells containing αSyn aggregates per frame. […]
(§1) Quantification of CAD cell aggregates was performed using a Zeiss LSM Pascal confocal microscope (Zeiss, Oberkochen, Germany) with a 20× long working distance lens. […] Images from tenrandomly selected fields in each of three wells were quantified for each condition. Cells containing at least one intracytoplasmic aggregate, independent of size or number per cell, were scored as positive for aggregates. This number was divided by the number of transfected cells per field, determined by GFP fluorescence.

HeLa cells = experiment: rescue from Q333P mutant NFL toxicity in HeLa cells, MTT reduction assay; format: cell-based; conditions: 72 h after transfection
Protocol: FIG. 30 depicts the additional studies of DJ-1 mutations. […] Cells from FIG. 4M were quantified via ToPro3 nuclear staining and are expressed as number of cells per field from ten independent fields in each of three wells. […] GFP positive transfected cells from FIG. 5A-5L were quantified and are expressed as number of transfected cells per field from ten independent fields in each of three wells. […] After 72 h, cells were assayed by MTT reduction assay (which detects reduction of 3-(4,5-dimethylthiazol-2-yl)-2,5-diphenyltetrazolium bromide by metabolic enzymes) (Martinat et al. 2004). […] Undifferentiated ES cells were transfected with Q333P mutant NFL along with WT human DJ-1, C53A mutant DJ-1, or vector control. After 72 h, cells were assayed by MTT reduction assay (Martinat et al. 2004). […] Cells were differentiated for 72 h and lysed to produce Triton X-100-soluble and -insoluble fractions. Lysates were exposed to Western blotting with an antibody against transfected human NFL.

citrate synthase (CS) = target: T1, citrate synthase (CS) (Sus scrofa, UniProt P00889); experiment: suppression of heat-induced aggregation of citrate synthase (chaperone assay); format: biochemical; conditions: 0.8 μM CS, 43° C.; DJ-1 0.5-4.0 μM
T1 construct: purchased Sigma
T1 sequence (P00889 28-464): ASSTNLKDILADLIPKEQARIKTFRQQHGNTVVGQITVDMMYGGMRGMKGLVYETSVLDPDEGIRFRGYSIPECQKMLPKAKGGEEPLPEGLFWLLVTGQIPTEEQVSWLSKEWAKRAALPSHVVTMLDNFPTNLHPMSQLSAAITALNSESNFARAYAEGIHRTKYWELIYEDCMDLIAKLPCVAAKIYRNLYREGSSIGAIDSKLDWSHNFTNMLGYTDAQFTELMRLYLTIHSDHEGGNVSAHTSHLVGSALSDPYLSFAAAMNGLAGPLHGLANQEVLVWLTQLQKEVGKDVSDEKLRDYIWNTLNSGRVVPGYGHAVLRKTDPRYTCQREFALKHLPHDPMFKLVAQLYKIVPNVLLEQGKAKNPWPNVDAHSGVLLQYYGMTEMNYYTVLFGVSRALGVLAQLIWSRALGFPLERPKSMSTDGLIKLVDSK
Protocol: FIG. 22 illustrates that DJ-1 is a redox-dependent molecular chaperone. (A) Aggregation of CS was monitored at 43° C. after addition of either 0.8 μM CS alone (black), or along with 8.0 μM RNase A (purple), 0.5 μM DJ-1 (aqua), 2.0 μM DJ-1 (blue), 4.0 μM DJ-1 (red), or 2.0 μM Hsp27 (green). (B) Aggregation of 0.8 μM CS after 30 min at 4° C. […] (C) Aggregation of insulin (26 μM) B chains induced by 20 mM DTT at 25° C. Insulin alone (black) or in the presence of 4.0 μM RNase A (purple), 0.5 μM DJ-1 (aqua), 2.0 μM DJ-1 (blue), 4.0 μM DJ-1 (red), or 2.0 μM Hsp27 (green). […]
To test the redox regulation of DJ-1, the inventors assayed chaperone activity in the CS aggregation assay in the presence or absence of the reducing agent DTT. […] DTT-reduced DJ-1 was incubated with H2O2 (10 mM in aggregation buffer for 10 min at 4° C. followed by dialysis against aggregation buffer for 2 h), and subsequently chaperone activity was measured in the CS thermal aggregation assay. […]
Aggregation assays. CS aggregation was performed in 40 mM HEPES (pH 7.8), 20 mM potassium hydroxinde, 50 mM potassium chloride, and 10 mM ammonium sulfate, and monitored in a thermostat-controlled fluorescence spectrophotometer with excitation and emission wavelengths at 500 nm and slit widths at 2.5 nm. […]

DJ-1-deficient ES cells = experiment: rescue of DJ-1-deficient ES cells from H2O2 toxicity, MTT assay; conditions: transient transfection of expression plasmid, 10 μM H2O2 for 15 h, vs vector alone
[2] = test system: CAD murine neuroblastoma cells; experiment: Q333P mutant NFL intracytoplasmic inclusions in CAD cells; format: cell-based, mouse; conditions: co-overexpression with Q333P mutant NFL
Protocol: After 72 h in culture, cells were fixed and stained with a mouse monoclonal antibody for NFL and ToPro3, a nuclear dye. Scale bar, 100 μm. (M-R) CAD cell transfectants, as above, were fixed and stained with a polyclonal antibody for NFL (Perez-Olle et al. 2002) along with a mouse monoclonal antibody specific for the transfected human DJ-1. Scale bar, 20 μm. (S) Quantification of CAD cell NFL aggregates was performed using confocal microscopy. Images from tenrandomly selected fields in each of three wells were quantified for the presence of aggregates for each condition and presented as a percentage of total cells per field.
In a separate set of experiments, the inventors assayed the ability of DJ-1 to inhibit aggregation of a second substrate, neurofilament light subunit (NFL). […]
as §1

[3] = thermal denaturation monitored by circular dichroism; format: physicochemical; conditions: CD at 222 nm, range studied 0-90° C.
Text: (G) Redox regulation is unaffected by the C106A mutation.
Molecular chaperones typically display marked stability to thermal stress (Sastry et al. 2002). […] (see FIG. 28).

αSyn = αSyn aggregation in FeCl2-treated CAD neuroblastoma cells, Triton X-100 fractions; format: cell-based, mouse; conditions: overexpression by transfection, 2 mM FeCl2 18 h
Protocol: FIG. 24 illustrates that overexpression of WT DJ-1 inhibits aggregation of αSyn in vivo. (A) CAD murine neuroblastoma cells were transfected with Flag-αSyn along with WT DJ-1, L166P clinical mutant, or vector alone, and were differentiated in vitro via serum withdrawal. Cells were subsequently treated with 2 mM FeCl2 (Fe), 5 μM lactacystin (LC), or media alone (0). Triton X-100-soluble (Tx-100 sol) and Triton X-100-insoluble (Tx-100 insol) fractions were analyzed by Western blotting. Upon FeCl2 treatment, αSyn accumulates in the Triton X-100-insoluble fraction, and accumulation of insoluble αSyn is inhibited by overexpression of WT DJ-1 (left) but not the L166P clinical mutant (right). (B) Triton X-100-insoluble αSyn as quantified by NIH Image J of a Western blot (from [A]). (C) Heterozygous (±) and DJ-1 deficient (−/−) ES cells were differentiated using the embryoid body protocol. Cells were transfected with Flag-αSyn (F-αSyn), and, after 48 h, treated with 2 mM FeCl2 or with media alone for 18 h. Cell lysates were analyzed by Western blotting for αSyn or β-actin. […]
(A) Undifferentiated ES cells were transfected with Flag-αSyn and treated with 2 mM FeCl2 (Fe) or media alone (0) as described in FIG. 3. […] (C) Flag-αSyn from (B) was quantitated using NIH Image J.
The activity of DJ-1 overexpression on αSyn aggregation in this tissue culture model system was evaluated. […]

| Molecule | number of cells containing αSyn aggregates [1] | rescue from Q333P mutant NFL toxicity (HeLa cells) | chaperone activity: suppression of heat-induced CS aggregation (citrate synthase (CS)) | viability of H2O2-treated DJ-1 knockout cells after transfection (DJ-1-deficient ES cells) | accumulation of NFL inclusions [2] | thermal unfolding transition [3] | accumulation of Triton X-100-insoluble αSyn (αSyn) |
| --- | --- | --- | --- | --- | --- | --- | --- |
| L166P mutant DJ-1: PD-associated L166P mutant human DJ-1; recombinant protein in vitro or expressed from plasmid in cells (protein, UniProt Q99497 1-189, looked up, variant L166P) MASKRALVILAKGAEEMETVIPVDVMRRAGIKVTVAGLAGKDPVQCSRDVVICPDASLEDAKKEGPYDVVVLPGGNLGAQNLSESAAVKEILKEQENRKGLIAAICAGPTALLAHEIGFGSKVTTHPLAKDKMMNGGHYTYSENRVEKDGLILTSRGPGTSFEFAPAIVEALNGKEVAAQVKAPLVLKD | fails to do so | but not | abrogated chaperone activity | did not significantly alter the viability of H2O2-treated knockout cells | failed to inhibit the accumulation of aggregates | does not exhibit a thermal unfolding transition | but not |
| C106A/C53A/C46A: triple mutant that harbors mutations at all three cysteines in DJ-1 (protein, UniProt Q99497 1-189, looked up, variant C46A C53A C106A) MASKRALVILAKGAEEMETVIPVDVMRRAGIKVTVAGLAGKDPVQASRDVVIAPDASLEDAKKEGPYDVVVLPGGNLGAQNLSESAAVKEILKEQENRKGLIAAIAAGPTALLAHEIGFGSKVTTHPLAKDKMMNGGHYTYSENRVEKDGLILTSRGPGTSFEFALAIVEALNGKEVAAQVKAPLVLKD |  |  | loss of chaperone function | failed to protect from H2O2 toxicity |  |  |  |

Reference: patent US20060153807A1, “Vector-mediated gene regulation in midbrain dopamine neurons” (priority 2005, published 2006)
